Data taken from PubChem BioAssay AID1648 (Sanford-Burnham Center for Chemical Genomics, 2009).
The source made the active and inactive calls. No rule for the calls is given here.

The chains behind the UniProt entries cited, without tags or fusion partners. Residues count along the entry.
UniProt P42345, 2015-2114: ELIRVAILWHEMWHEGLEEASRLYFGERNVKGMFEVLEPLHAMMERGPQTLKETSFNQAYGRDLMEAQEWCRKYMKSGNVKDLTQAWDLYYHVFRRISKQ

Target: Serine/threonine-protein kinase mTOR (Homo sapiens) (UniProt P42345)
Assay: binders of mTOR FRB domain, biophysical, NMR (AID 1648)
Details: NMR binding to FRB domain, chemical shift

| Compound | Kd |
| --- | --- |
| OC1CN2CCC1CC2 (configuration not stated) | inactive: > 4 mM |
| CP(N)(=O)Oc1ccc(Cl)cc1 (configuration not stated) | inactive: > 4 mM |
